Reference: patent US20240217973A1, “IMIDAZOPYRIDINE COMPOUNDS AND USE THEREOF” (MEDSHINE DISCOVERY INC., priority 2021, published 2024)

Chains of the proteins cited; added tags and fusions are not shown.
UniProt P05177, whole entry: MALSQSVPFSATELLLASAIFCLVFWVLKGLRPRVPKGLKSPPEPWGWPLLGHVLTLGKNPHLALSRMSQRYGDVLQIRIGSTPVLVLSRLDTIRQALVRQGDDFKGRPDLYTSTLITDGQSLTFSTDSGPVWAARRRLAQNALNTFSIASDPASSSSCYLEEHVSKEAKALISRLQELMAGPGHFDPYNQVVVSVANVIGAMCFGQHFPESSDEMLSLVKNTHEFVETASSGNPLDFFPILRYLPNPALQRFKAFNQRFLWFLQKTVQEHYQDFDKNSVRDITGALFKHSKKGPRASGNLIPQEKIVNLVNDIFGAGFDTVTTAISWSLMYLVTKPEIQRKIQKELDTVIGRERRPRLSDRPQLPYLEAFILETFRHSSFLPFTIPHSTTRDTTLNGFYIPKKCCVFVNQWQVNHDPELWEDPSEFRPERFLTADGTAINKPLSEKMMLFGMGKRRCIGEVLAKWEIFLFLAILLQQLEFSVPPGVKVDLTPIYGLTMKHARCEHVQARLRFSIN
UniProt P11712, whole entry: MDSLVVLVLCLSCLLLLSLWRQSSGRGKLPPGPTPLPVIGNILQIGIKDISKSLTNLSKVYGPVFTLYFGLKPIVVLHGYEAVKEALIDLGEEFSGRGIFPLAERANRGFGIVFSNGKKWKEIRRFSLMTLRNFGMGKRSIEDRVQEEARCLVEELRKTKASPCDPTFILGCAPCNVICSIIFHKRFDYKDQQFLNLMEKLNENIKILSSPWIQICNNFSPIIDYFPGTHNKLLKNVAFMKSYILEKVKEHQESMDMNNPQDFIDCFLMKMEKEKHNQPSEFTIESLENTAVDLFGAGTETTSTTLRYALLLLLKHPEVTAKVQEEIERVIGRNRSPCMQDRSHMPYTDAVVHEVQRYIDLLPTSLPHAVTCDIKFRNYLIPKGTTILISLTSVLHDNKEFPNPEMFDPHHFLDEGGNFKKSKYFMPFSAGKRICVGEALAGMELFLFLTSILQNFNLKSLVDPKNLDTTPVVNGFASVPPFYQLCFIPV
UniProt P33261, whole entry: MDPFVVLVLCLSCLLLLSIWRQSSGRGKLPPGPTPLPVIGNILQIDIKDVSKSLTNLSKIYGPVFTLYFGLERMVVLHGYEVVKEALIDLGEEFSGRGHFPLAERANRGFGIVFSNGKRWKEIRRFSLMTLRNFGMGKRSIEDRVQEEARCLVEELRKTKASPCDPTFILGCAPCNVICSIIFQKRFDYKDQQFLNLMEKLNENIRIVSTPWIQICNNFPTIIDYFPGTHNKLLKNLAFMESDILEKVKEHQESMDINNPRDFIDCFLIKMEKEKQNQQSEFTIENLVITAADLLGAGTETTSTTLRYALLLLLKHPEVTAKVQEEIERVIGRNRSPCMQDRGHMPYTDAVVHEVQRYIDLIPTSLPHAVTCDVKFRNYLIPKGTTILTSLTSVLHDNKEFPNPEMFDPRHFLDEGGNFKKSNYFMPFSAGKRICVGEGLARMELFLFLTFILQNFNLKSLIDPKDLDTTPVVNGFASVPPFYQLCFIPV
UniProt P10635, whole entry: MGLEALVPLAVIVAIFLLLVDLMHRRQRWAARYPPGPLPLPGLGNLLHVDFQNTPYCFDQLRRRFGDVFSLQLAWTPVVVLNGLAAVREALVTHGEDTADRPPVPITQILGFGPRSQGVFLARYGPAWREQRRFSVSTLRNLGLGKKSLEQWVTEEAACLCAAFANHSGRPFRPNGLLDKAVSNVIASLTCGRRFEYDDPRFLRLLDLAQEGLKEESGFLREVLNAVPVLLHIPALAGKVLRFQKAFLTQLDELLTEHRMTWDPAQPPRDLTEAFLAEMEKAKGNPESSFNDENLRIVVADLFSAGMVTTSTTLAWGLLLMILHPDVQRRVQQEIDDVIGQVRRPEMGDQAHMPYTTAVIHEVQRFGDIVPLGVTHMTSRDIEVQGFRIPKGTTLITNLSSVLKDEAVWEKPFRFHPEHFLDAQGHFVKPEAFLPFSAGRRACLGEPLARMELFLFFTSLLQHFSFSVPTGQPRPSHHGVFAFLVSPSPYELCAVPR
UniProt P08684, whole entry: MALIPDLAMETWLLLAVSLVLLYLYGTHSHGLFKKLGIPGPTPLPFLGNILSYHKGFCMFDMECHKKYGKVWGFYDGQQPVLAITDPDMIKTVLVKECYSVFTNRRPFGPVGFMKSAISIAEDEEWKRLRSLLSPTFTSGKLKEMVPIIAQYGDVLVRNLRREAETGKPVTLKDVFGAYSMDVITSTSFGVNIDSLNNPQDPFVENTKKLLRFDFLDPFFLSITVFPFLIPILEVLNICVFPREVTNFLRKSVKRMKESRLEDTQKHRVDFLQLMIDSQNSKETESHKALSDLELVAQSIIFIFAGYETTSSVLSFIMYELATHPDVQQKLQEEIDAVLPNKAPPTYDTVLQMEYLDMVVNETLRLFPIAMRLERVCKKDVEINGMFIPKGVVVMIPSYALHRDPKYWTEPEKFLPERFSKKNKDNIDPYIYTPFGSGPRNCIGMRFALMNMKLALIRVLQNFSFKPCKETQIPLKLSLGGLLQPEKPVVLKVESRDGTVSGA

Legend:
[1] = Hepatocyte metabolic stability experiment (HMS), H; conditions: H hepatocytes, 1 μM
Experimental: (§1) Experimental operations: 198 μL of hepatocyte suspension (0.51×10^6 cells/mL) was added to the preheated incubation plate, and 198 μL of culture medium without hepatocytes was added to T0-MC and T120-MC incubation plates for the culture medium control group, and all incubation plates were pre-incubated for 10 minutes in a 37° C. incubator. Then 2 μL of the working solution of the test and control compounds were added and mixed well, and the incubation plate was immediately put into the plate shaker in the incubator, the rotation speed was adjusted to about 650 rpm, and the timer and the reaction were started. 2 duplicate samples for each compound were prepared at each time point. Incubation conditions: 37° C., saturated humidity, and containing 5% CO2. In the test system, the final concentration of the test compound was 1 μM, the final concentration of the control compound was 3 μM, the final concentration of hepatocytes was 0.5×10^6 cells/mL, and the final concentration of the total organic solvent was 0.96%, of which the final concentration of DMSO was 0.1%. […] All samples were mixed and analyzed by LC-MS/MS method. […]

CYP1A2 = CYP1A2 (Homo sapiens (Human), UniProt P05177)
plasma proteins = assay: Plasma protein binding experiment (PPB), H; conditions: 2 μM, 4 hours dialysis
Experimental: Experimental operation: 995 μL of blank plasma of each genus was taken, 5 μL of working solution of test compound (400 μM) or working solution of warfarin (400 μM) was added, so that the final concentrations of the test compound and warfarin in the plasma sample was 2 μM. The sample was mixed thoroughly. The final concentration of the organic phase DMSO was 0.5%; 50 μL of plasma samples of the test compound and warfarin were pipetted into the sample receiving plate (three parallels), and the corresponding volume of the corresponding blank plasma or buffer was immediately added so that the final volume of each sample well was 100 μL, with a volume ratio of 1:1 for plasma: dialysis buffer, and then 500 μL of stop solution was added to these samples, and these samples would be used as a T0 sample for the recovery and stability determination. […] All samples were analyzed by LC/MS/MS after protein precipitation, and the protein binding rate and recovery rate were calculated by the formula: % Unbound=100*F/T, % Bound=100−% Unbound, % Recovery 100*(F+T) T0 (where F was the peak area ratio of the compound in the dialysate after 4 hours of dialysis; T was the peak area ratio of the compound in the plasma after 4 hours of dialysis, and T0 was the peak area ratio of the compound in the plasma sample at zero time).

CYP2C9 = CYP2C9 (Homo sapiens (Human), UniProt P11712); assay: Inhibition of cytochrome P450 enzyme in vitro, human liver microsomes; format: in vitro ADME; conditions: read-out: CYP450 IC50 2C9
Experimental: (§2) To investigate the activity of compounds on human liver microsomal CYP450 enzyme, the compounds were tested for the inhibitory effect of five major subtypes of human hepatocyte CYP450 enzymes (CYP1A2, 2C9, 2C19, 2D6 and 3A4) using LC-MS/MS method. The IC50 value was used as an indicator for compound screening and analysis. • 1) Working solutions of test compounds and standard inhibitors were prepared (100×); • 2) The microsomes were removed from the −80° C. refrigerator, thawed on ice, labeled with the date, and returned to the refrigerator immediately after use; • 3) 20 μL of substrate solution was added to the corresponding well; • 4) 20 μL of phosphate buffer salt solution was added to the blank well; • 5) 2 μL of test compound and positive control working solution were added into the corresponding wells; • 6) 2 μL of solvent was added to the wells without the inhibitors and blank wells; • 7) Working solution of human liver microsome was prepared; • 8) 158 μL of HLM working solution was added to all wells of the incubation plate; • 9) The plate was preheated in a 37° C. water bath for about 10 minutes; • 10) NADPH cofactor solution was prepared; • 11) 20 μL of NADPH cofactor was added to all incubation wells; • 12) All CYP was mixed and incubated in a 37° C. water bath for 10 minutes; • 13) At the time point, the reaction was terminated by adding 400 μL of cold solution (200 ng/ml acetonitrile solution of tolbutamide and 200 ng/ml acetonitrile solution of Labetalol); • 14) The sample was centrifuged at 4000 rpm for 20 minutes to precipitate proteins; • 15) 200 μL of supernatant was transferred into 100 μL of high performance liquid chromatography water and shaked well for 10 minutes; • 16) LC/MS/MS analysis was started.

CYP2C19 = CYP2C19 (Homo sapiens (Human), UniProt P33261); assay: as above; format: in vitro ADME; conditions: read-out: CYP450 IC50 2C19
Experimental: as §2

CYP2D6 = CYP2D6 (Homo sapiens (Human), UniProt P10635); assay: as above; format: in vitro ADME; conditions: read-out: CYP450 IC50 2D6
Experimental: as §2

CYP3A4 = CYP3A4 (Homo sapiens (Human), UniProt P08684); assay: as above; format: in vitro ADME; conditions: read-out: CYP450 IC50 3A4
Experimental: as §2

[2] = Hepatocyte metabolic stability experiment (HMS), D; conditions: D hepatocytes, 1 μM
Experimental: as §1

## Nc1nccc2c1n(-c1ccc(Oc3ccccc3)cc1)c(=O)n2C1CCN(C(=O)/C=C/CF)C1 (single isomer, unassigned) [Compound 003B]
[1]
  HMS CLint(liver): 39.8 mL/min/kg
CYP1A2
  IC50: > 50 µM
Plasma proteins
  Unbound PPB: 10.7%
CYP2C9
  IC50: 20.7 µM
CYP2C19
  IC50: 31 µM
CYP2D6
  IC50: > 50 µM
CYP3A4
  IC50: > 50 µM
[2]
  HMS CLint(liver): < 44 mL/min/kg
